Results published in PMC10803289, “Transport and inhibition mechanism of the human SGLT2–MAP17 glucose transporter” (Nature Structural & Molecular Biology, 2023).

Legend:
[1] = biological target: T1, hSGLT2 F98A (Homo sapiens, UniProt P31639, F98A); experiment: α-MG uptake in HEK293 cells, F98A mutant; format: cell-based; parameters: expressed in transfected cells
T1 sequence (P31639 1-672 F98A): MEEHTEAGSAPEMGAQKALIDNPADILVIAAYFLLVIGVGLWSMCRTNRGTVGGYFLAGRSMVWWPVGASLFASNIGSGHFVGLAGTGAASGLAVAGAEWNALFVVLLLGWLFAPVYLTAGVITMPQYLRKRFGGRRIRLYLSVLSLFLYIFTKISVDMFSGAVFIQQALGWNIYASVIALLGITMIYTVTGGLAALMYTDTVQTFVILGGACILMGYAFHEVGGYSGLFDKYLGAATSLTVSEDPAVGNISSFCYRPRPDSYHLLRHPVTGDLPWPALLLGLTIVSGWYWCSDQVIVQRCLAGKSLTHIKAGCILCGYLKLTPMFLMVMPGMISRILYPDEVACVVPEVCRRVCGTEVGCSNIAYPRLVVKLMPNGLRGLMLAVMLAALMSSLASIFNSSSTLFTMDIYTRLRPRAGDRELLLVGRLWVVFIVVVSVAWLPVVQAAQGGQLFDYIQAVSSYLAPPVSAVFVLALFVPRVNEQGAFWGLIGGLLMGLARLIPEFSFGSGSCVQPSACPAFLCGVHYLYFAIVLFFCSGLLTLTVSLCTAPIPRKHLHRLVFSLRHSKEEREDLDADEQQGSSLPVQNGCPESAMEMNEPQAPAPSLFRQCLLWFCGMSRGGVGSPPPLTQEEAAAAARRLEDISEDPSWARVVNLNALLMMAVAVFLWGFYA
T1 sequence (Q13113 1-114 partner): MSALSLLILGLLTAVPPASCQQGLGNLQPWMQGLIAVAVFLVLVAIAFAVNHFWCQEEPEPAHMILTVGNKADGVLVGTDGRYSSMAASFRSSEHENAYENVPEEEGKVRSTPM
Source text: hSGLT2 complementary DNA and human MAP17 cDNA were synthesized and codon-optimized for expression in human cell lines. Both cDNAs were cloned into the pcDNA3.4 vector. The hSGLT2 sequence was fused with an N-terminal signal sequence from human trypsinogen 1, a His10 tag, and sfGFP, followed by a human rhinovirus 3C protease (HRV3C protease) recognition site. Point mutations were introduced into this construct using site-directed mutagenesis. These plasmids were utilized for all experimental procedures conducted in this study. […]
Cell lysates were deproteinized by adding acetonitrile containing candesartan as the internal standard. The α-MG concentration was quantified via liquid chromatography–tandem mass spectrometry (LC–MS/MS) using the internal standard method.
Cellular protein content was determined using a bicinchoninic acid protein assay kit (Thermo Fisher Scientific). The uptake of α-MG was expressed as the ratio of concentration in the cells (in pmol per mg protein) to concentration in the medium (in pmol μl^−1); this is known as the cell-to-medium ratio (in μl per mg protein).
In the inhibition study, the cell-to-medium ratio of cells transfected with the empty vector was used as the background. The specific α-MG uptake was calculated by subtracting this background from the total cell-to-medium ratio and normalized to the uptake achieved without the inhibitor. […]

[2] = biological target: T1, hSGLT2 F98A; experiment: SGLT2 inhibitor-binding assay (AS-MS), crude membrane, F98A mutant; parameters: expressed in transfected cells; host or cells: Expi293 cells, crude membrane fraction; details: for Binding (% of WT Bmax): F98A
Source text: hSGLT2 complementary DNA and human MAP17 cDNA were synthesized and codon-optimized for expression in human cell lines. Both cDNAs were cloned into the pcDNA3.4 vector. The hSGLT2 sequence was fused with an N-terminal signal sequence from human trypsinogen 1, a His10 tag, and sfGFP, followed by a human rhinovirus 3C protease (HRV3C protease) recognition site. Point mutations were introduced into this construct using site-directed mutagenesis. These plasmids were utilized for all experimental procedures conducted in this study.
To examine the inhibition of binding to the crude membrane, mammalian Expi293 cells were co-transfected with the hMAP17 and hSGLT2 plasmids, as described. The cells were collected and disrupted by sonication in a hypotonic buffer (50 mM HEPES–NaOH (pH 7.5), 10 mM KCl and protease inhibitor cocktail) or Na^+-free hypotonic buffer (50 mM Tris–HCl (pH 7.5), 10 mM KCl and protease inhibitor cocktail). The cell debris were removed by centrifugation (2,000g, 5 min, 4 °C). The membrane fraction was collected by ultracentrifugation (112,000g, 30 min, 4 °C) and stored at −80 °C before use. […] The extract solution from the filter plate was diluted with water containing candesartan as an internal standard, and the SGLT2 inhibitor concentration was quantified via LC–MS/MS.
Nonspecific binding was measured using the crude membrane of nontransfected Expi293 cells. Specific binding was calculated by subtracting nonspecific binding from the binding of hSGLT2-expressing cells. Specific binding was normalized to hSGLT2 protein expression levels, measured via FSEC. The equilibrium dissociation constant (Kd) and maximum number of binding sites (Bmax) were calculated via nonlinear regression in GraphPad Prism 8.4.3. […]
The concentrations of the extract solution from the filter plate and of the cell lysate were quantified using a tandem mass spectrometry QTRAP6500 System (SCIEX) coupled with an ACQUITY UPLC system (Waters) using the internal standard method. […]

Compound: O=C(CCc1ccc(O)cc1)c1c(O)cc(O)cc1O[C@@H]1O[C@H](CO)[C@@H](O)[C@H](O)[C@H]1O [Phlorizin]
- inhibition of α-MG uptake (in words) [1]: greatly impaired
- phlorizin binding (in words) ([2]; F98A single mutant): did not bind
- Binding (% of WT Bmax) ([2]; Phlorizin 25 nM): 0.0000%
- Binding (% of WT Bmax) ([2]; Phlorizin 50 nM): 0.0000%
